Key:
[1] = target: T1, Human EphA2 (Homo sapiens, UniProt P29317); test: FP competition binding (Study 2, alternative protocol); settings: read-out: Human Ki; Table 10, bicyclic peptides
T1 construct: EphA2 (Ecto); Human; C-terminal; R&D systems; 3035-A2; polyHis (C); purchased R&D systems 3035-A2

By UniProt entry, the sequences of proteins in these tests, tags left out. Residues count along the entry.
UniProt P29317, 24-537 limits assumed: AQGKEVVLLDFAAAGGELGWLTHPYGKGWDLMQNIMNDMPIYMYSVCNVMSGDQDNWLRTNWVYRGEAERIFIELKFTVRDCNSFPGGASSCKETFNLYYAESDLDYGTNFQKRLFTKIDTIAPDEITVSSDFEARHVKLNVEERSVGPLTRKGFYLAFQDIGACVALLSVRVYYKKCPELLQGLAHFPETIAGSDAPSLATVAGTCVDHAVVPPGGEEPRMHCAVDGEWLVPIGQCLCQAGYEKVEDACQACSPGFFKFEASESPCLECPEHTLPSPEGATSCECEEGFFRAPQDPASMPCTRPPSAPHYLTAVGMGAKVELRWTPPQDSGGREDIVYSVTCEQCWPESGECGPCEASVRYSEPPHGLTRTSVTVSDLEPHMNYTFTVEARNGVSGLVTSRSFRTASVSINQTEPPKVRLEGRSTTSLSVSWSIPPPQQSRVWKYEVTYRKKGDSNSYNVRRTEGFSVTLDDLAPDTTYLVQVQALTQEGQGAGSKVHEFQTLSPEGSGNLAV
UniProt P54764, 20-547 limits assumed: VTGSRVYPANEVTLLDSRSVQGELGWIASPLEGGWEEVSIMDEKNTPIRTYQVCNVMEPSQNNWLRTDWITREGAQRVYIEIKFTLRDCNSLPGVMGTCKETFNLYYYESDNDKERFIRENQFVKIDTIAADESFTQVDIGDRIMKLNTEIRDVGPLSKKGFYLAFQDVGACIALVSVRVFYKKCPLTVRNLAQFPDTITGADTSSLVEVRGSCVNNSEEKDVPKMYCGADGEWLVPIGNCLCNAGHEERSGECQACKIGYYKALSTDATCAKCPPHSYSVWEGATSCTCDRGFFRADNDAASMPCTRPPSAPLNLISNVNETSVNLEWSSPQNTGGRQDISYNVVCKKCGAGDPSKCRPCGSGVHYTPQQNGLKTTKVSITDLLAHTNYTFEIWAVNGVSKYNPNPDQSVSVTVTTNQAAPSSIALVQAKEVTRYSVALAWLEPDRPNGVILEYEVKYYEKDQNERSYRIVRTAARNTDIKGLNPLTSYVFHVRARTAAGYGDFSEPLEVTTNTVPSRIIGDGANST
UniProt D3ZBN3, 26-200: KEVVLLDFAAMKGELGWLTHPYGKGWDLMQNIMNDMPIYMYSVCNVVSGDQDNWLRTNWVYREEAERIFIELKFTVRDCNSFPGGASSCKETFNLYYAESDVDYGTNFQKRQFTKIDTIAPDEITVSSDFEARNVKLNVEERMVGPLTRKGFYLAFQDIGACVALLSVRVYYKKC
UniProt D3ZBN3, 26-205: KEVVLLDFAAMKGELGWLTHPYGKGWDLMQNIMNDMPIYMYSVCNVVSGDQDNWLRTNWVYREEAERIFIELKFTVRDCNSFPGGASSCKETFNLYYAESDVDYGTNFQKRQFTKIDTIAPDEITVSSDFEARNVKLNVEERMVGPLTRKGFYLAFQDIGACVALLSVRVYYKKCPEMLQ
UniProt P28907, whole entry: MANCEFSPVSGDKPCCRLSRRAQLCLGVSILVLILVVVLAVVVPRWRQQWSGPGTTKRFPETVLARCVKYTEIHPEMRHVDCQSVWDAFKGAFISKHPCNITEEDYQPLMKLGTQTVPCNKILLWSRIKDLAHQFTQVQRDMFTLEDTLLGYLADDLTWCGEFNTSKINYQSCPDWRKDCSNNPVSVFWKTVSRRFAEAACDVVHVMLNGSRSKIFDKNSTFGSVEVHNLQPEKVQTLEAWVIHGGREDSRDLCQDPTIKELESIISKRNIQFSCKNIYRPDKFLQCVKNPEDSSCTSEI
UniProt Q03145, 26-538 limits assumed: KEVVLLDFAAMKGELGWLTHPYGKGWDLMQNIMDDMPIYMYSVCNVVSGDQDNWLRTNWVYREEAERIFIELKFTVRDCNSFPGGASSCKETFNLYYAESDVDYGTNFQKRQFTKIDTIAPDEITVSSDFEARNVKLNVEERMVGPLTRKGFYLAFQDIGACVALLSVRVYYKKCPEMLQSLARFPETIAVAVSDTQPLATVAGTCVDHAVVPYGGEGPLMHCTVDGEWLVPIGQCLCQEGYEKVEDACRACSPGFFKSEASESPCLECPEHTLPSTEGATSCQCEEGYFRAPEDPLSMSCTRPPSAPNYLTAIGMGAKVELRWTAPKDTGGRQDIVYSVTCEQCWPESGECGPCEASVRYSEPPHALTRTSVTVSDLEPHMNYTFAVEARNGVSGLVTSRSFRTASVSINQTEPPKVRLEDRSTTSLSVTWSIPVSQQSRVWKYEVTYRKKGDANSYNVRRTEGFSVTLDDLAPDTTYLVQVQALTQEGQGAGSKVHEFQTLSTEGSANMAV

[2] = target: T2, human EphA4 (Homo sapiens, UniProt P54764); test: Selectivity direct binding assay (FP); settings: read-out: human EphA4, Table 7
T2 construct: EphA4 (Ecto); Human; Fc fusion; R&D systems; 6827-A4; Fc fusion (R&D 6827-A4) or C-terminal polyHis (Sino Biological 11314-H08H); purchased R&D systems or Sino Biological 6827-A4 or 11314-H08H
Procedure: (§1) Peptides with a fluorescent tag (either fluorescein, SIGMA or Alexa Fluor488™, Fisher Scientific) were diluted to 2.5 nM in PBS with 0.01% tween 20 or 50 mM HEPES with 100 mM NaCl and 0.01% tween pH 7.4 (both referred to as assay buffer). This was combined with a titration of protein in the same assay buffer as the peptide to give 1 nM peptide in a total volume of 25 μL in a black walled and bottomed low bind low volume 384 well plates, typically 5 μL assay buffer, 10 μL protein (Table 1) then 10 μL fluorescent peptide. […] . […] . The gain used for analysis was determined for each tracer at the end of the 60 minutes where there was no protein in the well. […] “Lig” was a defined value of the concentration of tracer used.

[3] = target: T3, rat EphA2 (Rattus norvegicus, UniProt D3ZBN3); test: Selectivity direct binding assay (FP); parameters: EphA2 (ligand); Rat; C-; In-house; N/A; polyHis (C); made in house; settings: read-out: rat EphA2, Table 7
Procedure: as §1

[4] = target: T4, rat EphA3 (Rattus norvegicus, UniProt O08680); test: Selectivity direct binding assay (FP); settings: read-out: rat EphA3, Table 7
T4 construct: EphA3 (Ecto); Rat; C-; Sino; 80465-; polyHis (C); purchased Sino Biological 80465-R08H
T4 sequence (O08680 21-541 limits assumed): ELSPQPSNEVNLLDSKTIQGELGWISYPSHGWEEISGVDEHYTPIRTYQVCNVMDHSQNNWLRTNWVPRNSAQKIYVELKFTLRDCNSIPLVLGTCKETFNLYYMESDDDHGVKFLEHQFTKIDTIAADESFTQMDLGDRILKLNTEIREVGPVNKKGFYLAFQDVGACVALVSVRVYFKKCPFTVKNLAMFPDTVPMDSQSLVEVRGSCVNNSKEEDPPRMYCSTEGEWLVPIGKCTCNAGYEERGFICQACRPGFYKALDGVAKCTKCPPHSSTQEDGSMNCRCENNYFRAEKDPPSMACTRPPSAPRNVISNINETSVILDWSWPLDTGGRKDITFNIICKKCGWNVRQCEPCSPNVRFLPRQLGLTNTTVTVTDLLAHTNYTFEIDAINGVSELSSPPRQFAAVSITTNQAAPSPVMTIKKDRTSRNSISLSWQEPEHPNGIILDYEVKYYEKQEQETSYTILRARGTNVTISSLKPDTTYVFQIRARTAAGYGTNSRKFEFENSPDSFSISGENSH
Procedure: as §1

[5] = target: human CD38 (Homo sapiens, UniProt P28907); test: Selectivity direct binding assay (FP); settings: read-out: human CD38, Table 7
Procedure: as §1

[6] = target: T1, Human EphA2; test: SPR measurements; type: binding; settings: read-out: Human KD
Procedure: Non-Fc fusion proteins were biotinylated with EZ-Link™ Sulfo-NHS-LC-Biotin for 1 hour in 4 mM sodium acetate, 100 mM NaCl, pH 5.4 with a 3× molar excess of biotin over protein. The degree of labelling was determined using a Fluorescence Biotin Quantification Kit (Thermo) after dialysis of the reaction mixture into PBS. For analysis of peptide binding, a Biacore T200 instrument was used utilising a XanTec CMD500D chip. Streptavidin was immobilized on the chip using standard amine-coupling chemistry at 25° C. with HBS—N (10 mM HEPES, 0.15 M NaCl, pH 7.4) as the running buffer. […] Residual activated groups were blocked with a 7 min injection of 1 M ethanolamine (pH 8.5):HBS—N(1:1). Buffer was changed to PBS/0.05% Tween 20 and biotinylated EphA2 was captured to a level of 500-1500 RU using a dilution of protein to 0.2 μM in buffer. A dilution series of the peptides was prepared in this buffer with a final DMSO concentration of 0.5% with a top peptide concentration was 50 or 100 nM and 6 further 2-fold dilutions. The SPR analysis was run at 25° C. at a flow rate of 90 μl/min with 60 seconds association and 900-1200 seconds dissociation. Data were corrected for DMSO excluded volume effects. […]

[7] = target: T5, Mouse EphA2 (Mus musculus, UniProt Q03145); test: FP competition binding (Study 2, alternative protocol); parameters: EphA2 (Ecto); Mouse; C-; Sino; 50586-M08H; polyHis (C); purchased Sino Biological 50586-M08H; settings: read-out: Mouse Ki; Table 10, bicyclic peptides
[8] = target: T3, rat EphA2; test: as above; parameters: Rat; C-; In-house; N/A; polyHis (C); made in house; settings: read-out: Rat Ki; Table 10, bicyclic peptides
[9] = target: T5, Mouse EphA2; test: Selectivity direct binding assay (FP); parameters: EphA2 (Ecto); Mouse; C-; Sino; 50586-M08H; polyHis (C); purchased Sino Biological 50586-M08H; settings: read-out: mouse EphA2, Table 7
Procedure: as §1

[10] = target: T1, Human EphA2; test: Fluorescence polarisation direct binding assay; settings: read-out: Human EphA2 (KD, nM ± 95% CI), fluorescently tagged TATA peptides
Procedure: as §1

A(HArg)DCPLVNPLCLHPGWTC [BCY6017]
Ki [1]: 0.0083 µM

Ac-CPLVNPLCLHPGWSCRGQ-Sar6-(D-K[FI]) [Compound 13]
Kd [2]: > 3 µM

Ac-CPLVNPLCLHPGWTCL(D-His)G-Sar6-(D-K[FI]) [Compound 12]
Kd [2]: > 3 µM

ACVPDRRCAYMNVCA-Sar6-K(FI) [Compound 2]
Kd [3]: 0.21 ± 0.00196 µM
Kd [4]: > 1 µM
Kd [2]: > 1 µM
Kd [5]: > 6 µM

Ac-CPLVNPLCLHPGWTCLHG-Sar6-(D-K[FI]) [Compound 11]
Kd [2]: > 3 µM

Ac-CPLVNPLCLHPGWSC(HArg)GQ-Sar6-(D-K[FI]) [Compound 14]
Kd [2]: > 3 µM

ACPLVNPLCLHPGWSCRGQ [Compound 87]
Ki [1]: 0.0044 µM
Kd [6]: 0.00102 µM

(β-Ala)-Sar10-ARDCPLVNPLCLHPGWTC [BCY6009]
Ki [7]: 0.0267 µM
Ki [1]: 0.0127 µM
Ki [8]: 0.018 µM

(β-Ala)-Sar10-A(D-Arg)DC(HyP)LVNPLCL(D-3,3-DPA)P(D-Asp)W(HArg)C [BCY6141]
Ki [1]: 0.0904 µM

ACYVGKECAYMNVCA-Sar6-K(FI) [Compound 7]
Kd [9]: 0.216 µM
Kd [3]: 0.253 ± 0.00686 µM

FI-(β-Ala)-Sar10-ARDCPLVNPLCLHPGWTC [Compound 9]
Kd [2]: > 3 µM

Ac-CPLVNPLCLHPGWSCRGQ-Sar6-(D-K) [Compound 91]
Ki [1]: 0.0067 µM

(β-Ala)-Sar10-A(HArg)DC(HyP)LVNPLCLHP(D-Asp)W(HArg)C [Compound 66]
Ki [7]: 0.0045 µM
Ki [1]: 0.0027 µM
Ki [8]: 0.0019 µM

FI-(β-Ala)-Sar10-A(HArg)DCPLVNPLCLHPGWTC [Compound 10]
Kd [10]: 9.07 ± 2.49 nM

(β-Ala)-Sar5-(SEQ ID NO: 11) [BCY6018]
Ki [1]: 0.0131 µM

Ac-(SEQ ID NO: 12)-Sar6-(D-K[Ac]) [BCY6059]
Ki [1]: 0.0432 µM

(β-AlaSO3H)-Sar5-(SEQ ID NO: 11) [BCY6153]
Ki [1]: 0.0182 µM
